Values of other authors as cited in patent US20250241992A1, “COMPOSITIONS AND METHODS FOR TREATING METABOLIC DISEASES” (Gila Therapeutics, Inc., priority 2018, published 2025).

Conditions: acute increase of salivary PYY(3-36)

With PYY(3-36) as the substance, how does the “one hour food intake” value read?
The value was “decrease in one hour food intake in a dose dependent manner”.
